pIC50: −log10 of the molar value.
Tests used:
[1] = target: Disintegrin and metalloproteinase domain-containing protein 17 (Homo sapiens, UniProt P78536); experiment: Inhibition of TACE
[2] = target: Matrix metalloproteinase-9 (Homo sapiens, UniProt P14780); experiment: Inhibition of MMP9
Collagenase 3 = Collagenase 3 (Homo sapiens, UniProt P45452)

Protein sequences, listed by entry. Tags and fused reporters are not part of them. Lines headed by an entry give the natural chain unless they say otherwise; changes in a name come on top.
UniProt P78536: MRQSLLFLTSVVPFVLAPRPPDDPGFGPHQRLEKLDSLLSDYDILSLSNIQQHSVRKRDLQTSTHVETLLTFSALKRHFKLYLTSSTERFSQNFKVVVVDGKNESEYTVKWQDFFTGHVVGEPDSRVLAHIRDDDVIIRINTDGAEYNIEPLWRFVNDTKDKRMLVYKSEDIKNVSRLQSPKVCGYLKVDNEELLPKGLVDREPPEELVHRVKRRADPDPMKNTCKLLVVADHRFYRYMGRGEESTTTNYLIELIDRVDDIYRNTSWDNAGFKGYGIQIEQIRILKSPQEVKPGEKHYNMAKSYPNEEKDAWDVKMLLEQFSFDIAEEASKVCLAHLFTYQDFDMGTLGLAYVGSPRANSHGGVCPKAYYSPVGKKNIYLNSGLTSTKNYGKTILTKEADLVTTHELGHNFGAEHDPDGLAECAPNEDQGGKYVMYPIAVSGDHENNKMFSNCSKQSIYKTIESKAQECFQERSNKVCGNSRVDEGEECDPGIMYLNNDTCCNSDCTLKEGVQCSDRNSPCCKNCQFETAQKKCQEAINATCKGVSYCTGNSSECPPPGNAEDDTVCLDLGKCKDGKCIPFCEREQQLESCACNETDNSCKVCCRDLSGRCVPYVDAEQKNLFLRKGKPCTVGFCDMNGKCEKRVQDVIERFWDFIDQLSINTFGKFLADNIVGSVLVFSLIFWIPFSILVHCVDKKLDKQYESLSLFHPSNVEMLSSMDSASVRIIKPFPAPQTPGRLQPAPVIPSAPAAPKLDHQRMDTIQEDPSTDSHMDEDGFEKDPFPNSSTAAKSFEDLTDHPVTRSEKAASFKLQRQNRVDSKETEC
UniProt P14780: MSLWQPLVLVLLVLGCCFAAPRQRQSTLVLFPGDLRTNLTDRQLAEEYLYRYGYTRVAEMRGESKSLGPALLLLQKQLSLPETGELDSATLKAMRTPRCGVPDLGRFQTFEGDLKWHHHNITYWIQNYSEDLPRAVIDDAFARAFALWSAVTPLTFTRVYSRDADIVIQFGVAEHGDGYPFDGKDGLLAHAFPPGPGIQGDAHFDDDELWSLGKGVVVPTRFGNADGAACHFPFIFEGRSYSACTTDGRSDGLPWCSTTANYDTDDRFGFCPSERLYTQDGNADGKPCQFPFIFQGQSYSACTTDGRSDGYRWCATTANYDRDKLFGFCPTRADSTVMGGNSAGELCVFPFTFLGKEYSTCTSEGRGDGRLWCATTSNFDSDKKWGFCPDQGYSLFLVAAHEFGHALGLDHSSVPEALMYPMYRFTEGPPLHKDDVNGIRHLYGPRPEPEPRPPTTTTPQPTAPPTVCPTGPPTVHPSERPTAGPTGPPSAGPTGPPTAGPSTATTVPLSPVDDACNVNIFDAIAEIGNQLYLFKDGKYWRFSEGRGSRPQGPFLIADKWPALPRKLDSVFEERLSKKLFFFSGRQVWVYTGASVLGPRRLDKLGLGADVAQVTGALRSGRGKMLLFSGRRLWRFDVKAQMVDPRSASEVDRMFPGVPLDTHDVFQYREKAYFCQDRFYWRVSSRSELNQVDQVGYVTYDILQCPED

pIC50 [2]	pIC50 (Collagenase 3)	Compound	pIC50 [1]
		CC#CCOc1ccc(S(=O)(=O)CC2(C(=O)NO)CCN(S(=O)(=O)c3c(C)noc3C)CC2)cc1	8.66
7.15	8.05	CC#CCOc1ccc(S(=O)(=O)N2CCSC(C)(C)C2C(=O)NO)cc1 (stereo not drawn)	

— ChEMBL document CHEMBL1146270, “Identification of potent and selective TACE inhibitors via the S1 pocket” (Bioorg Med Chem Lett, 2007)
